Several values for one entry are separate records, joined by “and”; a condition that tells them apart may be missing. Equal values may be shown once. Read-outs that look alike come from different tables or passages of the source.
Legend:
human M4 (hM4) = human M4 (hM4) (Homo sapiens, UniProt P08173); assay: Calcium mobilization assay, hM4/Gqi5-CHO cells, EC20 acetylcholine; conditions: for %AChMax: normalized to 100 μM acetylcholine; for EC50: read-out: hM4 EC50
[1] = Multi-species hepatocyte MetID; conditions: 10 µM parent, 4 h

The chains behind the UniProt entries cited, without tags or fusion partners.
UniProt P08173, whole entry, looked up: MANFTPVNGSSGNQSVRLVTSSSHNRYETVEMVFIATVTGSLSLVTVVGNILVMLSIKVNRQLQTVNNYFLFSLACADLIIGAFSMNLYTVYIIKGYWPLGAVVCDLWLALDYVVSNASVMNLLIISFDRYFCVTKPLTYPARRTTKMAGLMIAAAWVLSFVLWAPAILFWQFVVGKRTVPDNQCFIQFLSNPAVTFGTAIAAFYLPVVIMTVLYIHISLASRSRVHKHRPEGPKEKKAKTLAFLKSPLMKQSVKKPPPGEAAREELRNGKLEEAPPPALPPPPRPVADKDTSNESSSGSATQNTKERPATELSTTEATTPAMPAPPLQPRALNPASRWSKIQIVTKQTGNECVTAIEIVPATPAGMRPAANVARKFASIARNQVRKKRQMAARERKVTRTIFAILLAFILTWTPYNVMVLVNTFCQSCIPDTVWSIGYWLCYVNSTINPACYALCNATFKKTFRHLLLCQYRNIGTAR

SMILES	hM4 pEC50 (human M4 (hM4))	%AChMax (human M4 (hM4)) [% AChMax]	EC50 (human M4 (hM4); PAM, EC20 ACh) [nM]	other results
Cc1nnc2sc3c(N4CCCC4)nncc3c2c1C	6.57	96	271	–
Cc1nnc2sc3c(N4CCCC4)nccc3c2c1C	7.94	72	11.5	–
Cc1nnc2sc3c(N4CC5(COC5)C4)ncnc3c2c1C	6.57	89	268	–
Cc1nnc2sc3c(N4CCCC4)ccnc3c2c1C	6.07	46	842	–
Cc1nnc2sc3c(C4CCOCC4)ncnc3c2c1C	6.92	75	120	–
Cc1nnc2sc3c(NCc4ccc(C(C)(C)O)cc4)ncnc3c2c1CO	–	–	–	% Total Peak Area (MS) ([1]; dog hepatocytes): 5.82% and 5.8%; % Total Peak Area (MS) ([1]; human hepatocytes): 1.36% and 1.4%; % Total Peak Area (MS) ([1]; minipig hepatocytes): 10.8%; % Total Peak Area (MS) ([1]; monkey hepatocytes): 6.77% and 6.8%; % Total Peak Area (MS) ([1]; rat hepatocytes): 14.3%
Cc1nc(NC2CCC2)c2sc3nnc(C)c(C)c3c2n1	<4.50	–	> 30000	–
Cc1nnc2sc3c(C4CC(F)(F)C4)ncnc3c2c1C	6.46	72	350	–
COc1nnc2sc3c(NCc4ccc(C(C)(C)O)cc4)ncnc3c2c1C	6.10	87	788	fold loss of hM4 potency (human M4 (hM4); vs 15p): 11 fold
Cc1nnc2sc3c(NC4CCC4)ccnc3c2c1C	<4.50	–	> 30000	–
Cc1nnc2sc3c(N4CC(c5ccncc5)C4)ncnc3c2c1C	–	62	–	–
Cc1nnc2sc3c(NCc4ccc(OC(F)F)cc4)ncnc3c2c1C	6.58	69	261	–
Cc1nnc2sc3c(NC4CCC4)nccc3c2c1C	7.85	84	14.2	–
Cc1nnc2sc3c(NCc4ccc(C(C)(C)O)cc4F)ncnc3c2c1C	6.55	85	285	–
Cc1nc(N2CCCC2)c2sc3nnc(C)c(C)c3c2n1	<4.50	–	> 30000	–
Cc1nnc2sc3c(C4CCN(C(=O)C5CC5)CC4)ncnc3c2c1C	6.39	36	408	fold improvement of hM4 potency (human M4 (hM4); vs 13a): 10.5 fold
Cc1cc(CNc2ncnc3c2sc2nnc(C)c(C)c23)ccc1C(C)(C)O	6.56	91	278	–
COc1ccc(CNc2nncc3c2sc2nnc(C)c(C)c23)cc1F	6.39	87	407	–
Cc1nnc2sc3c(NCc4ccc(C(C)(O)C(F)(F)F)cc4)ncnc3c2c1C (stereo not shown)	6.26	69	547	fold loss of hM4 potency (human M4 (hM4); vs 15p): 7.5 fold
Cc1nnc2oc3c(NC4CCC4)ncnc3c2c1C	5.82	55	–	fold loss of functional hM4 activity (human M4 (hM4); vs 15d): 20.5 fold

SMILES	hM4 pEC50 (human M4 (hM4))	%AChMax (human M4 (hM4)) [% AChMax]	EC50 (human M4 (hM4); PAM, EC20 ACh) [nM]	other results
COC(C)(C)c1ccc(CNc2ncnc3c2sc2nnc(C)c(C)c23)cc1	6.50	100	315	fold loss of hM4 potency (human M4 (hM4); vs 15p): 4 fold
Cc1nnc2sc3c(NCc4ccc(C(C)(C)O)c(F)c4)ncnc3c2c1C	6.55	80	285	–
CC(=O)OCc1nnc2sc3c(NCc4ccc(C(C)(C)O)cc4)ncnc3c2c1C	5.97	59	1060	–
Cc1nnc2sc3c(OCc4ccccc4)ncnc3c2c1C	<5.00	52	> 10000	–
Cc1nnc2sc3c(NCc4ccc(C(C)(O)C5CC5)cc4)ncnc3c2c1C (stereo not shown)	6.48	85	334	–
Cc1nnc2sc3c(OCc4ccc(C(C)(C)O)cc4)ncnc3c2c1C	6.19	81	642	fold loss of hM4 potency (human M4 (hM4); vs 15p): 9 fold
Cc1nnc2sc3c(NCc4ccc(C5(O)CCC5)cc4)ncnc3c2c1C	7.01	90	97.8	–
Cc1nnc2oc3c(NC4CN(c5ncc(F)cn5)C4)ncnc3c2c1C	6.55	37	284	–
Cc1nnc2sc3c(NC4CN(c5cnc(C6CC6)cn5)C4)ncnc3c2c1C	7.23	80	58.3	–
Cc1nnc2sc3c(Oc4ccccc4)ncnc3c2c1C	<5.00	25	> 10000	–
Cc1c(CO)nnc2sc3c(NCc4ccc(C(C)(C)O)cc4)ncnc3c12	–	94	–	% Total Peak Area (MS) ([1]; dog hepatocytes): 22%; % Total Peak Area (MS) ([1]; minipig hepatocytes): 14%; % Total Peak Area (MS) ([1]; rat hepatocytes): 9.57% and 9.6%
Cc1nnc2sc3c(NCc4ccc(C(=O)O)cc4)ncnc3c2c1C	6.36	91	441	–
Cc1c(C(F)F)nnc2sc3c(NCc4ccc(C(C)(C)O)cc4)ncnc3c12	6.60	99	251	fold loss of hM4 potency (human M4 (hM4); vs 15p): three-fold
Cc1nnc2sc3c(NCc4ccc(C(C)(C)O)cc4)nncc3c2c1C	6.00	99	1000	EC50 (human M4 (hM4)): 1000 nM
Cc1nnc2sc3c(N(C)Cc4ccc(C(C)(C)O)cc4)ncnc3c2c1C	6.60	86	249	fold loss of hM4 potency (human M4 (hM4); vs 15p): 3.4 fold
COc1ccc(CNc2ncnc3c2sc2nnc(C)c(C)c23)cc1F	–	90	–	–
Cc1nnc2sc3c(NC4CN(c5ncc(C(F)(F)F)cn5)C4)ncnc3c2c1C	6.67	76	214	–
COc1ccc(CNc2ncnc3c2oc2nnc(C)c(C)c23)cc1F	5.97	36	1070	–
Cc1nnc2sc3c(NC4CCC4)ncnc3c2c1C	–	73	–	–
Cc1nnc2sc3c(N4CC(C)(O)C4)ncnc3c2c1C	6.54	63	286	–

SMILES	hM4 pEC50 (human M4 (hM4))	%AChMax (human M4 (hM4)) [% AChMax]	EC50 (human M4 (hM4); PAM, EC20 ACh) [nM]	other results
Cc1nnc2sc3c(NC4CN(c5cc(Cl)ncc5Cl)C4)ncnc3c2c1C	6.90	69	125	–
CCc1nnc2sc3c(NCc4ccc(C(C)(C)O)cc4F)ncnc3c2c1C	6.04	50	916	fold loss of hM4 potency (human M4 (hM4); vs 19a): 3.4 fold
Cc1nnc2sc3c(NC4CN(c5ncc(C(F)(F)F)cn5)C4)nccc3c2c1C	6.97	87	108	–
Cc1nnc2sc3c(NC4CN(c5ncc(F)cn5)C4)nccc3c2c1C	7.84	79	14.6	–
Cc1c(Cl)nnc2sc3c(NCc4ccc(C(C)(C)O)cc4)ncnc3c12	6.77	97	171	fold loss of hM4 potency (human M4 (hM4); vs 15p): two-fold
Cc1nnc2sc3c(CC(C)(C)C)ncnc3c2c1C	6.72	76	190	–
Cc1nnc2oc3c(NCc4ccc(C(C)(C)O)cc4)ncnc3c2c1C	5.75	65	1770	fold loss of hM4 potency (human M4 (hM4); vs 15p): 25 fold
Cc1nnc2sc3c(N4CC5CC5C4)ncnc3c2c1C (stereo not shown)	7.67	81	21.3	–
Cc1nnc2sc3c(C4CCNCC4)ncnc3c2c1C	5.37	34	4270	–
Cc1cc(C(C)(C)O)ccc1CNc1ncnc2c1sc1nnc(C)c(C)c12	6.64	71	231	–
COc1ccc(CNc2ncnc3c2sc2nnc(C)c(C)c23)cc1	6.61	88	247	fold less potent (hM4) (human M4 (hM4); pyrimidine vs corresponding pyridine analog (37c, 37e)): 10 fold
COc1ccc(CNc2nccc3c2sc2nnc(C)c(C)c23)cc1	7.61	80	24.6	–
Cc1nnc2sc3c(NCc4ccc(CN5CCOCC5)cc4)ncnc3c2c1C	6.79	87	162	–
Cc1nnc2sc3c(NCc4ccc(C(C)(C)O)nc4)ncnc3c2c1C	7.14	79	72.5	fold more potent (hM4) (human M4 (hM4); vs 19b): 4 fold
Cc1nnc2sc3c(C4CC4)ncnc3c2c1C	6.63	79	235	–
Cc1nnc2sc3c(NCc4ccc(C(=O)NC5CC5)cc4)ncnc3c2c1C	6.98	93	104	–
Cc1nnc2sc3c(CCC4CCCCO4)ncnc3c2c1C (stereo not shown)	6.54	70	290	–
Cc1nnc2sc3c(NC4CC4)ncnc3c2c1C	7.97	97	10.6	–
Cc1nnc2sc3c(NCc4ccc5c(c4)COC5(C)C)ncnc3c2c1C	6.40	95	396	–

— paper PMC12142581
